Literature values as cited in US20150202224A1, “METHOD OF TREATING IRON DEFICIENCY ANEMIA” (Luitpold Pharmaceuticals, Inc., priority 2012, published 2015).

Legend:
[1] = in vivo, iv; cited from earlier work
[2] = nearly neutral; cited from earlier work

Row | Substance | projected calculated terminal half-life (t½) [1] [h] | pH [2]
1 | iron dextran | 72 to 96 | –
2 | polynuclear iron (III)-hydroxide 4(R)-(poly-(1→4)-O-α-glucopyranosyl)-oxy-2(R),3(S),5(R),6-tetrahydroxy-hexanoate [FCM] | – | 5.0 to 7.0
